Results reported in US9029332B2, “Cross-linked peptides and proteins, methods of making same, and uses thereof” (The Research Foundation for The State University of New York, priority 2010, dated 2015).

System: HeLa cells
Assay: FACS analysis of cell permeability of fluorescein-conjugated peptides
Type: cell-based
Details: 10 μM fluorescein-conjugated peptide, 2 h, relative to DMSO control
Method: FIG. 6. An example of flow cytometry analysis of HeLa cells after treatment with 10 μM fluorescein-conjugated peptides: (a) Representative histograms; (b) Bar graph showing normalized mean fluorescence.
FACS Analysis. HeLa Cells were cultured in DMEM medium supplemented with 10% fetal bovine serum in 6-well plate in a 37° C., 5% CO2 incubator to reach confluency of around 70%. The cells were then washed twice with PBS before switching to serum-free DMEM medium. After standing in the incubator for 30 minutes, appropriate amounts of peptides (1 mM in DMSO) were added to the culture plate to obtain a final peptide concentration of 10 μM. Cells were incubated at 37° C. for additional 2 hrs. Then the medium was removed and the cells were washed with PBS (3×) followed by treatment with trypsin to detach the cells. After a brief low-speed centrifugation, the HeLa cells were collected and re-suspended in PBS for the FACS analysis.

Sequence: LTFEHYWAQLTS [PDI, reference compound]
- cell penetration: minimal cell penetration
